From ChEMBL document CHEMBL1146130, “Benzoxazole benzenesulfonamides as allosteric inhibitors of fructose-1,6-bisphosphatase” (Bioorg Med Chem Lett, 2006)

Target: T1, Fructose-1,6-bisphosphatase 1 (Homo sapiens, UniProt P09467)
T1 sequence (P09467 whole entry): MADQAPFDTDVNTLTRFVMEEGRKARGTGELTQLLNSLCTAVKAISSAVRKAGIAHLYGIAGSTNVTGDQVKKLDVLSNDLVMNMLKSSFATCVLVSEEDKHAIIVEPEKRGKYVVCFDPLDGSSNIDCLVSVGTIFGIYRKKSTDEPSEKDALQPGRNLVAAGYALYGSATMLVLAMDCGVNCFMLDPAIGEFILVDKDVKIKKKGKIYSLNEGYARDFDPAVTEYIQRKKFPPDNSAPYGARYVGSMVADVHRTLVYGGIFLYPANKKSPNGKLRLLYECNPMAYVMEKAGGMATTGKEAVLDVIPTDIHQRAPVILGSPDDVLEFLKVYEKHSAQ
Experiment: Inhibition of human FBPase1

COc1cc(-c2cccc(N)c2)c2oc(NS(=O)(=O)c3cc(Cl)ccc3Cl)nc2c1
IC50: 570 nM
